## Reported logP (octanol/water) values for industrial, environmental and drug-like chemicals

Data: OPERA 2.9 data sets, kmansouri/OPERA on GitHub.

logP is the log10 of the octanol-water partition coefficient; higher is more lipophilic. "via" names the databases from which the curators took the value.

structure (SMILES)	log Kow	via
CCCCCCC(C)(C)c1cc(O)c2c(c1)OC(C)(C)[C@@H]1CCC(=O)C[C@@H]21	6.8	PubChem
O=C1C[NH2+]CC2c3ccccc3CC[NH+]12.O=P([O-])(O)O.O=P([O-])(O)O (stereo not given)	-1	eChemPortal
CC(C)C(=O)OOC(C)(C)C	2.68	eChemPortal
C=CCc1ccccc1O	2.55	OCHEM
O=P(Oc1ccccc1)(Oc1ccccc1)Oc1ccc(-c2ccc(OP(=O)(Oc3ccccc3)Oc3ccccc3)cc2)cc1	5.5	eChemPortal
C=CCCl	2.1	PubChem, eChemPortal
Cc1ccn2nc(S(=O)(=O)Nc3c(F)cccc3F)nc2n1	0.21	PubChem
O=C(O)C1N=C(c2ccccc2)c2cc(Cl)ccc2NC1=O (stereo not given)	3	PubChem
N#Cc1ccc(N)cc1	1	eChemPortal
Cc1cccc(C)c1Cc1cnc[nH]1	2.72	OCHEM
Cl.Fc1ccc2c(C3CCNCC3)noc2c1	-0.345	eChemPortal
c1ccc2sc(SNC3CCCCC3)nc2c1	5	eChemPortal
CC(F)(F)Cl	1.63	OCHEM, PubChem
OC1(c2ccc(Cl)cc2)c2ccccc2C2=NCCN21 (stereo not given)	3.7	PubChem
C[C@@]12CCCCC[C@@H](Cc3ccc(O)cc31)[C@@H]2N	3.3	PubChem
C=CC(=O)OCCCCO	0.77	eChemPortal
[Na+].[O-][n+]1ccccc1[S-]	0.003	eChemPortal
C[C@@H]1O[C@@H](O[C@H]2CC[C@@]3(C)[C@H](CC[C@@H]4[C@@H]3CC[C@]3(C)[C@@H](C5=CC(=O)OC5)CC[C@]43O)C2)[C@H](O)[C@H](O)[C@H]1O	2.1	OCHEM
COc1ccc2cccc(CCN)c2c1.Cl	1.071	eChemPortal
CC(N=C=S)c1ccccc1 (stereo not given)	3.46	OCHEM
NC(=O)[O-].[NH4+]	-0.47	eChemPortal
Cc1cc([N+](=O)[O-])ccc1N	1.311	eChemPortal
CC1CN1 (stereo not given)	0.13	PubChem
Cc1cc(C(C)(C)c2cc(C)c(O)c(C)c2)cc(C)c1O	4.5	eChemPortal
Nc1c(Cl)c(F)nc(OCC(=O)O)c1Cl	2.2	PubChem
C[C@@]12CC[C@@H]3[C@H](CCC4=CC(=O)C=C[C@]43C)[C@H]1CCC2=O	2.2	eChemPortal
C[C@]12CC[C@@H]3c4ccc(OC(=O)N(CCCl)CCCl)cc4CC[C@H]3[C@@H]1CC[C@@H]2O	5.7	PubChem
COS(=O)(=O)c1ccc(C)cc1	1.88	eChemPortal
Brc1ccccc1-c1ccccc1Br	4.6	eChemPortal
CC(=O)C1(Cl)CC1	1.3	eChemPortal
CC[C@@H](CO)NC(=O)[C@@H]1C=C2c3cccc4[nH]cc(c34)C[C@H]2N(C)C1	1.2	PubChem
N#Cc1cc(Br)c(O)c(Br)c1	2.75	OCHEM, PubChem
CC(C)(C)C(=O)O[C@H]1CC[C@@]2(C)C(=C[C@H](O)[C@H]3[C@@H]4[C@@H]5C[C@@H]5C(=O)[C@@]4(C)CC[C@@H]32)C1	4.17	eChemPortal
CCC(C)(C#N)/N=N/C(C)(C#N)CC (stereo partly drawn)	2.07	eChemPortal
O=P1(NCCNP2(=O)Oc3ccccc3-c3ccccc32)Oc2ccccc2-c2ccccc21 (stereo not given)	2.258	eChemPortal
CC(C)(C)C(=O)O[C@H]1CC[C@@]2(C)C(=C[C@H](O)[C@H]3[C@@H]4[C@@H](OC(=O)C(C)(C)C)CC(=O)[C@@]4(C)CC[C@@H]32)C1	5.57	eChemPortal
Cl.Cl.NNCc1ccccc1	0.46	eChemPortal
CC(c1ccc(O)cc1)(c1ccc(O)cc1)c1ccc(O)cc1	3.88	eChemPortal
C=CCC1(CCCC)C(=O)NC(=O)NC1=O	2.31	OCHEM
O=C(NC(=O)c1c(F)cccc1F)Nc1cc(Cl)c(OC(F)(F)C(F)C(F)(F)F)c(Cl)c1F (stereo not given)	4.94	eChemPortal

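These are experimental values that the OPERA curators gathered from public databases to train and test their QSAR models. The files give a single number for a compound and property, which may rest on several reports. Method, purity and exact conditions of the single measurements are not given. The measured form (salt, isomer or mixture) is not always the one drawn. Unmarked limits or estimates from the upstream databases cannot be ruled out.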